Earlier results, collected in patent US20070031341A1, “Methods of delivering therapeutics to the brain” (priority 2005, published 2007).

Tested on: cerebellar granule cells exposed to MPP+ neurotoxin
Settings: 50 U/ml catalase; about 50% without; cited from earlier work

## catalase
  in vitro viability of cerebellar granule cells exposed to MPP+: about 75%
